# Reference: PubChem BioAssay AID2101 (National Center for Advancing Translational Sciences (NCATS), 2009)
# “And” between values parts separate entries of the source, which are not always exact repeats. Identical values can stand only once. The list shows a part of the results, in another mix than the full data. Records with an inconclusive call do not appear. The source made the active and inactive calls. Calls come from the whole dose curve; as a rule, active = well fitted inhibition curve with a large enough effect; inconclusive = small, poorly fitted or top-dose-only effect, or effect the other way, or another doubt; inactive = no such curve, though single readings can be large or run the other way.
# Target: Lysosomal acid glucosylceramidase (Homo sapiens) (UniProt P04062)
# Assay: qHTS Assay for Inhibitors and Activators of N370S glucocerebrosidase as a Potential Chaperone Treatment of Gaucher Disease;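 note: 0% = full enzyme activity and -100% = no enzyme basal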
# Details: N370S GC spleen homogenate, 4MU-glucoside fluorescence; at 59.4 µM (top of the series) unless noted
# Description: NIH Chemical Genomics Center [NCGC]
# NIH Molecular Libraries Probe Production Centers Network [MLPCN]
# Assay Submitter (PI): Wei Zheng
# Glucocerebrosidase (GC) catalyzes the hydrolysis of beta-glucocerebroside to glucose and ceramide in lysosomes. Mutations in the glucocerebrosidase gene result in Gaucher disease, an autosomal recessive lysosomal storage disorder. Many of the mutations encountered in patients with Gaucher disease are missense alterations that may cause misfolding, decreased stability and/or mistrafficking of this lysosomal protein. […] These inhibitors include iminosugar analogs and three non-iminosugar inhibitors identified from a previous HTS of 62,000 compounds with the wild type recombinant enzyme. However, the enhancement of enzyme activity by the chaperone action of an enzyme inhibitor must be balanced against the direct inhibition of the enzyme. An enzyme activator could also function as a chaperone by binding to the enzyme and helping to correct its misfolding and mistrafficking. While activators for GC have not yet been identified, they may have better therapeutic potential than inhibitors. Therefore the discovery and development of chemical activators may provide a new strategy for the chaperone therapy.
# We have optimized a new assay using N370S mutant GC derived from the spleen of a Gaucher patient. […] In addition, the MLPCN compound library has expanded, which increases the chance of finding new and better probes.
# NCGC Assay Protocol Summary:
# This is a fluorogenic enzyme assay with 4-methylumbelliferyl-beta-D-glucopyranoside as the substrate and N370S glucocerebrosidase from human spleen homogenate as the enzyme preparation. Upon the hydrolysis of this fluorogenic substrate, the resulting product, […] which can be detected by a standard fluorescence plate reader. Data were normalized to the controls for basal activity (without enzyme) and 100% activity (with enzyme). The AC50 values were determined from concentration-response data modeled with the standard Hill equation.
# Assay buffer: 50 mM citric acid (titrated with potassium phosphate to pH 5.0), 100 mM potassium chloride, 10 mM sodium chloride, 1 mM magnesium chloride, 0.01% Tween-20.
# 1536-well assay protocol:
# (1) Add 2 ul/well of spleen homogenate (27 ug final)
# (2) Add 23 nL compounds in DMSO solution. The final titration was 0.5 nM to 58 uM.
# (3) Add 2 ul of substrate (1 mM final)
# (4) Incubate at 37C for 40 min.
# (5) Add 2 ul stop solution (1M NaOH and 1M Glycine mixture, pH 10)
# (6) Detect the assay plate in a ViewLux plate reader (PerkinElmer) with Ex=365 nm and Em=440nm.
# Keywords: Glucocerebrosidase, beta-glucosidase, Gaucher Disease, pharmacological chaperone, chaperone therapy, high throughput screening, glucocerebrosidase inhibitor, MLSMR, MLSCN, NIH Roadmap, qHTS and NCGC
row,Compound,"activity change, negative = inhibition"
1,CC(C)C(=O)NC(Sc1ccccc1)C(Cl)(Cl)Cl (centres undefined),inactive: 1.69%
2,O=P(Nc1nccs1)(c1ccccc1)c1ccccc1,inactive: -1.72%
3,c1nnnn1CCn1cnnn1,inactive: 6.7%
4,CCC(C)(OOC(C)(C)C)OOC(C)(C)C,inactive: -1.78%
5,O=[As](O)(c1ccccc1)c1ccc(O)cc1,inactive: -25.4%
6,O=[N+]([O-])c1ccc(O)c(/C=N/Nc2ccc([N+](=O)[O-])cc2[N+](=O)[O-])c1,inactive: -4.26%
7,O=[N+]([O-])c1ncn(CCn2cnc([N+](=O)[O-])n2)n1,inactive: -1.19%
8,CC(=O)NC(SC(=S)N(C)C)C(Cl)(Cl)Cl (centres undefined),inactive: 6.7%
9,O=C(OC1CN2CCC1CC2)c1cccc(Cl)c1 (centres undefined),inactive: -3.45%
10,C(Cc1nn[nH]n1)Cc1nn[nH]n1,inactive: 22.6%
11,Nc1ccc([As](=O)(O)c2ccc([N+](=O)[O-])cc2)cc1,inactive: 0.858%
12,O=P(Nc1ccccn1)(c1ccc(Br)cc1)c1ccc(Br)cc1,inactive: 9.28%
13,CN(C)C1(CNC(=O)c2ccc(Cl)c(S(N)(=O)=O)c2)CCCCC1,inactive: -18%
14,Cc1cc([N+](=O)[O-])cc([N+](=O)[O-])c1O,inactive: -3.37%
15,CN(C(=O)Cc1ccccc1)[C@H]1CC[C@@]2(CCCO2)C[C@@H]1N1CCCC1,inactive: -4.02%
16,O=P(Nc1nc2ccccc2s1)(c1ccccc1)c1ccccc1,inactive: 22.1%
17,C[C@H]1OP(=O)(Oc2ccccc2)[C@H](O)[C@H](O)[C@H]1N=[N+]=[N-] (some centres undefined),inactive: 0.595%
18,CN(C(=O)Cc1ccc(Cl)c(Cl)c1)[C@@H]1CCCC[C@@H]1N1CCCC1,inactive: -7.96%
19,O=C(OC1CN2CCC1CC2)c1ccccc1 (centres undefined),inactive: -2.18%
20,CCC(=O)N1C2C3N(C(=O)CC)C1C1N(C(=O)CC)C(C(N1C(=O)CC)N3C(=O)CC)N2C(=O)CC,inactive: -2.24%
21,COC(=O)c1cc2c(s1)N=C(c1ccccc1)N(C)P2(=O)N1CCOCC1 (centres undefined),inactive: 0.235%
22,Cc1ccc(OP(=O)(Nc2ccccn2)Oc2ccc(C)cc2)cc1,inactive: 13.3%
23,CC(=O)NC(SC(=S)N(CC(C)C)CC(C)C)C(Cl)(Cl)Cl (centres undefined),inactive: -0.14%
24,O=c1c2cc([N+](=O)[O-])ccc2[nH]c2c([N+](=O)[O-])cc([N+](=O)[O-])cc12,inactive: -6.57%
25,CN(C)C(=O)Oc1noc2ccccc12,inactive: 3.35%

row,Compound,"activity change, negative = inhibition"
1,c1ccc(-c2nn[nH]n2)c(-c2nn[nH]n2)c1,inactive: 13.4%
2,CCOC(=O)NC(Sc1ccccc1)C(Cl)(Cl)Cl (centres undefined),inactive: 2.9% [at 12.8 µM]
3,Cc1ccc(NP(=O)(Oc2cccc(C)c2)Oc2cccc(C)c2)nc1,inactive: 5.7%
4,CCNC(=S)/N=C(\N)N[N+](=O)[O-],inactive: 6.63%
5,O=C(NC1CCS(=O)(=O)C1)NP(=S)(Oc1ccccc1)Oc1ccccc1 (centres undefined),inactive: 5.22%
6,C[C@H]1OP(=O)(Oc2ccccc2)C[C@@H]2O[C@@H]21 (some centres undefined),inactive: 4.18%
7,C[C@@H]1C=CCP(=O)(Oc2ccccc2)O1 (some centres undefined),inactive: -1.55%
8,CC(=O)c1ccc(N2CC2c2ccncc2)cc1 (centres undefined),inactive: 4.51%
9,CC(=O)Nc1ccc([As](=O)(O)O)c(O)c1,inactive: -1.9%
10,CC(=O)Nc1ccc(Oc2c([N+](=O)[O-])cc([N+](=O)[O-])cc2[N+](=O)[O-])cc1,inactive: -1.79%
11,O=P1(Nc2nc3ccc(Cl)cc3s2)COc2ccccc2O1 (centres undefined),inactive: -9.96%
12,CC(C)(C)C(=O)NC(Sc1ccccc1)C(Cl)(Cl)Cl (centres undefined),inactive: 9.27%
13,Oc1ccccc1CNc1ccccn1,inactive: 10.2% [at 12.8 µM]
14,O=C(NC(Sc1ccncn1)C(Cl)(Cl)Cl)c1ccccc1 (centres undefined),inactive: -27.2%
15,Cc1c2non([O-])c-2c(C)[n+](=O)[n+]1[O-],inactive: -1.61%
16,Nc1cc(N)c2nonc2c1[N+](=O)[O-],inactive: 0.773%
17,CC(C)CC(=O)NC(Sc1ccc(Cl)cc1)C(Cl)(Cl)Cl (centres undefined),inactive: 28.1%
18,CN(C(=O)Cc1ccc(Cl)c(Cl)c1)[C@H]1CCCC[C@H]1N1CCCC1,inactive: -6.98%
19,Cc1ccc(N/C(=N/P(=O)(N2CCOCC2)N2CCOCC2)N2CCOCC2)cc1,inactive: 1.62%
20,NC(=O)c1cc([N+](=O)[O-])cc([N+](=O)[O-])c1N,inactive: -2.79%
21,CN1CCCC(OC(=O)C(c2ccccc2)c2ccccc2)C1 (centres undefined),inactive: 9.24%
22,Clc1ccc(Cl)c(NC2=NCC(CBr)S2)c1 (centres undefined),inactive: -4.88%
23,Cc1ccc(OP(=O)(Nc2nccs2)Oc2ccc(C)cc2)cc1,inactive: 6.87%
24,O=[N+]([O-])c1cc([N+](=O)[O-])c(CCN2CCOCC2)c([N+](=O)[O-])c1,inactive: -11.7%
25,Nc1cccc2ccc([As](=O)(O)O)cc12,inactive: 12.9%

row,Compound,"activity change, negative = inhibition"
1,CCN(N=Nc1nonc1N)c1nonc1N,inactive: 7.89%
2,O=P(Nc1nc2ccc(Cl)cc2s1)(c1ccccc1)c1ccccc1,inactive: 23.3%
3,CC(=O)Nc1ccc([As](=O)(O)O)cc1,inactive: 5.83%
4,O=C(O)c1ccccc1[As](=O)(O)O,inactive: 3.1%
5,Cc1cc(SC(NC(=O)c2ccc(F)cc2)C(Cl)(Cl)Cl)ncn1 (centres undefined),inactive: -1.23%
6,CCOP(=O)(Nc1ccccc1)OCC,inactive: 1.19% and inactive: 8.39%
7,Cc1ccc(NP(=O)(Oc2ccccc2F)Oc2ccccc2F)nc1,inactive: 12.4%
8,CC(C)(C)C(=O)NC(Sc1ccncn1)C(Cl)(Cl)Cl (centres undefined),inactive: 24.1%
9,O=C(O)CNc1ccc([As](=O)(O)O)cc1,inactive: 1.24%
10,O=[N+]([O-])c1cccc(NC2=NCC(CBr)S2)c1 (centres undefined),inactive: -9.53%
11,O=C(Nc1cc([As](=O)(O)O)ccc1O)c1ccccc1,inactive: 1.15%
12,CCN(/C(=N/P(=O)(N1CCOCC1)N1CCOCC1)N1CCOCC1)c1ccc(OC)cc1,inactive: -4.47%
13,Nc1ccc([As](=O)(O)c2ccc(N)cc2)cc1,inactive: -18.3%
14,C[N+]1=C2C=CC=CC=C2SC12C([N+](=O)[O-])=CC([N+](=O)[O-])=C[C-]2[N+](=O)[O-] (centres undefined),inactive: -10.3%
15,CC(=O)C1=CCCC2CCC1N2 (centres undefined),inactive: -13.3% and inactive: 1.18%
16,CC(C)=N/N=C(\N)N[N+](=O)[O-],inactive: 8.6%
17,COc1ccc(C2=NCC(CBr)S2)cc1 (centres undefined),inactive: -19.8%
18,Cc1ccc(NP(=O)(Oc2ccccc2)Oc2ccccc2)nc1,inactive: -7.92%
19,CCc1nc2c(n1)c1c(non1O)c1c2no[n+]1[O-],inactive: -5.92%
20,O=[N+]([O-])c1cccc2n[nH]nc12,inactive: -11.3%
21,CC(=O)N1C2C3N(C(C)=O)C1C1N(C(C)=O)C(C(N1C(C)=O)N3C(C)=O)N2C(C)=O,inactive: 2.27%
22,O=C(OC1CN2CCC1CC2)c1cccc([N+](=O)[O-])c1 (centres undefined),inactive: -8.6%
23,CCOC(=O)c1ccc(NC(=O)C(C)(CCl)SC)cc1 (centres undefined),inactive: -22.9%
24,CCC(C)N(CC(C)C)C(=S)SC(NC(C)=O)C(Cl)(Cl)Cl (centres undefined),inactive: 4.7%
25,COP1(=S)c2c(C)nn(CCC#N)c2N=C(c2ccc(F)cc2)N1C (centres undefined),inactive: -6.58%

row,Compound,"activity change, negative = inhibition"
1,O=C(COc1ccccc1)OC1CN2CCC1CC2 (centres undefined),inactive: -3.23%
2,O=C(Nc1ccncc1[N+](=O)[O-])c1ccc([N+](=O)[O-])cc1[N+](=O)[O-],inactive: 0.194%
3,CCOC(=O)Nc1cccc([As](=O)(O)O)c1,inactive: -18.4%
4,O=P(Nc1ccccn1)(c1cccc2ccccc12)c1cccc2ccccc12,inactive: 13.9%
5,Cc1cc(SC(NC=O)C(Cl)(Cl)Cl)ncn1 (centres undefined),inactive: 5.54%
6,CN(N=O)C(=N)N[N+](=O)[O-],inactive: -1.87%
7,O=[N+]([O-])c1ccc(Nc2ccc(Oc3ccc([N+](=O)[O-])cc3[N+](=O)[O-])cc2)c([N+](=O)[O-])c1,inactive: -11.8%
8,CCOC(=O)Nc1ccc([As](=O)(O)O)c(O)c1,inactive: -1.98%
9,CCCCOc1ccc(C(=O)NCC2(N3CCCCC3)CCCCC2)cc1OC,inactive: -5.25%
10,ClCCSc1nnc(-c2cccnc2)o1,inactive: 10.5%
11,CC(C)NC(=O)NP(=O)(Oc1ccccc1)Oc1ccccc1,inactive: -1.41%
12,CCN(CC)C(=S)SC(NC=O)C(Cl)(Cl)Cl (centres undefined),inactive: 3.35%
13,C[As](=O)(O)c1cccc(C(=O)O)c1,inactive: -13.8%
14,O=[As](O)(c1ccc(O)cc1)c1ccccc1O,inactive: 20%
15,Cc1ccc(OP(=O)(Nc2ccc([N+](=O)[O-])cn2)Oc2ccc(C)cc2)cc1,inactive: 3.57%
16,Cc1ccc2nc3c(c(C)c2c1)CC(C(Cl)Cl)S3 (centres undefined),inactive: 16.9%
17,COc1ccc(N/C(=N/P(=O)(N2CCOCC2)N2CCOCC2)N2CCOCC2)cc1,inactive: -4.08%
18,Cc1c2c(nc3ccccc13)SC(C(Cl)Cl)C2 (centres undefined),inactive: 9.85%
19,O=C(OC1CN2CCC1CC2)C12CC3CC(CC(C3)C1)C2 (centres undefined),inactive: -15.3%
20,Cc1cc(=O)[nH]c(N[N+](=O)[O-])n1,inactive: -4.68%
21,COc1ccc2nc(NP(=O)(c3ccccc3)c3ccccc3)sc2c1,inactive: 0.597%
22,COc1cc(I)ccc1[As](=O)(O)O,inactive: -15.7%
23,Nc1cccc2c([As](=O)(O)O)cccc12,inactive: 7.21%
24,Cc1ccc(NCCc2c([N+](=O)[O-])cc([N+](=O)[O-])cc2[N+](=O)[O-])cc1,inactive: -1.33%
